# Measured values: patent publication US5100881A (priority 1989, dated 1992)
# Test system: human lung cancer grafted into NUDE (LX1) mice
smiles,measurement,setting,value
"CC[C@]1(O)C[C@@H]2CN(CCc3c([nH]c4ccccc34)[C@@](C(=O)OC)(c3cc4c(cc3OC)N(C)[C@H]3[C@@](O)(C(=O)OC)[C@H](OC(C)=O)[C@]5(CC)C=CCN6CC[C@]43[C@@H]65)C2)C1 [Vinblastine, vinblastine]",T/C (tumor volume treated animals/tumor volume control animals),"1 mg/kg i.p. at D0, D3, D6 and D9",56
same,SGD (Standard Growth Delay),"1 mg/kg i.p. at D0, D3, D6 and D9, tumor 5 mm x 5 mm at start",1.5
same,antitumor activity on LX1 human lung cancer (in words),"i.p. at D0, D3, D6 and D9",very little activity
